Values quoted from earlier work, collected in US20240350590A1, “COMPOSITION FOR ORALLY ADMINISTERED FORMULATION CONTAINING GLP-1 ANALOGUE” (HANMI PHARM. CO., LTD., priority 2021, published 2024).

Details: longer than that of GLP-1

exendin-4
half-life in the body: 2 to 4 h
